These results are taken from PubChem BioAssay AID1654 (Sanford-Burnham Center for Chemical Genomics, 2009).

Chains of the proteins cited; added tags and fusions are not shown.
UniProt P51452, whole entry: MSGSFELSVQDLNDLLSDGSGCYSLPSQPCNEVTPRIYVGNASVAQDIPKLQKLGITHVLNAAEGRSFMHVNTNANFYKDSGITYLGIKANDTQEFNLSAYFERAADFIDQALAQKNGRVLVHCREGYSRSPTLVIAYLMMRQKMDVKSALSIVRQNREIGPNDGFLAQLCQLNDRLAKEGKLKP

Each structure is given as a SMILES string. The entries are a selection whose mix differs from that of the whole data set. Calls of active or inactive are those of the source. Cut-off read from the data, not from the text of the source: active = inhibition above about 50%; inactive = the rest.

For this test, the target named is Dual specificity protein phosphatase 3 (Homo sapiens) (UniProt P51452). Description: inhibition of human DUSP3 activity – biochemical, absorbance, uHTS, primary screen (AID 1654). Conditions: recombinant VHR phosphatase, pNPP absorbance; at 13.3 µM; stronger effect = higher value.
For orientation: inhibition means the change of the read-out against control, counted positive when it falls. `COc1ccc2nc(NP(=O)(c3ccccc3)c3ccccc3)sc2c1`: the inhibition is inactive: 14.5%.

With `O=P1(Nc2nc3ccc(Cl)cc3s2)COc2ccccc2O1` (configuration not stated), the inhibition is inactive: -11.9%.
